These compounds were tested on 60 clinical P. aeruginosa isolates. Conditions: predicted from mutations and resistance genes found by array in 60 isolates.
Parameters: species or system Pseudomonas aeruginosa
With `C[C@@H](O)[C@H]1C(=O)N2C(C(=O)O)=C(SCCN=CN)C[C@H]12` [Imipenem, imipenem] the “Cumulative resistance predicttion deduced from array” value was 50%. For `NCC[C@H](O)C(=O)N[C@@H]1C[C@H](N)[C@@H](O[C@H]2O[C@H](CN)[C@@H](O)[C@H](O)[C@H]2O)[C@H](O)[C@H]1O[C@H]1O[C@H](CO)[C@@H](O)[C@H](N)[C@H]1O` [Amikacin, amikacin], the “Cumulative resistance predicttion deduced from array” value was 20%. With `CC(C)(O/N=C(\C(=O)N[C@@H]1C(=O)N2C(C(=O)[O-])=C(C[n+]3ccccc3)CS[C@H]12)c1csc(N)n1)C(=O)O` [Ceftazidim, ceftazidime] the “Cumulative resistance predicttion deduced from array” value was 40%. With `NC[C@H]1O[C@H](O[C@H]2[C@H](O)[C@@H](O[C@H]3O[C@H](CO)[C@@H](O)[C@H](N)[C@H]3O)[C@H](N)C[C@@H]2N)[C@H](N)C[C@@H]1O` [Tobramycin, tobramycin] the “Cumulative resistance predicttion deduced from array” value was 17%.

From patent US20060211002A1, “Antibiotic susceptibility and virulence factor detection in Pseudomonas aeruginosa” (priority 2005, published 2006)
